# Test system: PANC1 tumor-bearing mice
# Assay: In vivo fluorescence imaging
# Conditions: single mouse
# Protocol: For animals and tumor model, male BALB/c nude mice at 5–6 weeks were purchased from Vital River Laboratory Animal Technology (Beijing, China). All animal experiments were performed according to the institutional animal care guidelines established by the Institutional Animal Care and Use Committee of Nankai University. To establish the PANC1 tumor-bearing mouse model, 1 × 10^6 PANC1 cells were injected subcutaneously into the right chest of BALB/c nude mice. After the tumor grows to a suitable size, the tumor was divided into small pieces and then subcutaneously incubated into the right chest of other mice. […] The ex vivo fluorescence imaging of major organs at 24 h post injection was imaged by IVIS. Fluorescent images were analyzed using Living Image 3.1 (Caliper Life Sciences).
compound,measurement,setting,value
"CN1C(=CC=CC=CC2=[N+](C)c3ccccc3C2(C)C)C(C)(C)c2ccccc21 [CY5-DM, 1,1’,3,3,3’,3’-hexamethylindodicarbocyanine]",FL intensity of the tumor in vivo,1h post iv injection,2.04E+09
same,FL intensity of the tumor in vivo,3h post iv injection,1.51E+09

# From PMC10500001, “Dual hypoxia-responsive supramolecular complex for cancer target therapy” (Nature Communications, 2023)
